In patent publication US20140331365A1 (priority 2008, published 2014):

Assays:
[1] = system: human lung epithelial cell line A549
[2] = system: soybean leaves carrying Rps1k; details: in vivo

SMILES	inhibition of accumulation/entry of PfHRPII(N)-GFP in A549 cells [1]	hypersensitive response (HR) to Avr1k in Rps1k leaves in the presence of 1,3IP2 [2]
O=P(O)(O)O[C@@H]1C(O)[C@H](OP(=O)(O)O)[C@@H](O)C(O)[C@H]1O (stereo partly drawn) [1,3-IP2, Inositol 1,3 diphosphate]	could also inhibit entry	no HR was observed
O=P(O)(O)OC1[C@@H](O)[C@H](O)C(OP(=O)(O)O)[C@H](O)[C@@H]1O (stereo partly drawn) [IP2, Inositol-1,4-diphosphate]	strongly inhibited	–
